Test results from patent publication US20250042857A1, “SOS1 Inhibitor With Pyrido-Fused Six-Membered Ring Structure” (HAIHE BIOPHARMA CO., LTD., priority 2021, published 2025).

Amino acid sequences for entries named in this document (tags omitted). A change or cut given only in a name is not applied to a line headed by its entry.
UniProt Q07889, whole entry, stated change not applied: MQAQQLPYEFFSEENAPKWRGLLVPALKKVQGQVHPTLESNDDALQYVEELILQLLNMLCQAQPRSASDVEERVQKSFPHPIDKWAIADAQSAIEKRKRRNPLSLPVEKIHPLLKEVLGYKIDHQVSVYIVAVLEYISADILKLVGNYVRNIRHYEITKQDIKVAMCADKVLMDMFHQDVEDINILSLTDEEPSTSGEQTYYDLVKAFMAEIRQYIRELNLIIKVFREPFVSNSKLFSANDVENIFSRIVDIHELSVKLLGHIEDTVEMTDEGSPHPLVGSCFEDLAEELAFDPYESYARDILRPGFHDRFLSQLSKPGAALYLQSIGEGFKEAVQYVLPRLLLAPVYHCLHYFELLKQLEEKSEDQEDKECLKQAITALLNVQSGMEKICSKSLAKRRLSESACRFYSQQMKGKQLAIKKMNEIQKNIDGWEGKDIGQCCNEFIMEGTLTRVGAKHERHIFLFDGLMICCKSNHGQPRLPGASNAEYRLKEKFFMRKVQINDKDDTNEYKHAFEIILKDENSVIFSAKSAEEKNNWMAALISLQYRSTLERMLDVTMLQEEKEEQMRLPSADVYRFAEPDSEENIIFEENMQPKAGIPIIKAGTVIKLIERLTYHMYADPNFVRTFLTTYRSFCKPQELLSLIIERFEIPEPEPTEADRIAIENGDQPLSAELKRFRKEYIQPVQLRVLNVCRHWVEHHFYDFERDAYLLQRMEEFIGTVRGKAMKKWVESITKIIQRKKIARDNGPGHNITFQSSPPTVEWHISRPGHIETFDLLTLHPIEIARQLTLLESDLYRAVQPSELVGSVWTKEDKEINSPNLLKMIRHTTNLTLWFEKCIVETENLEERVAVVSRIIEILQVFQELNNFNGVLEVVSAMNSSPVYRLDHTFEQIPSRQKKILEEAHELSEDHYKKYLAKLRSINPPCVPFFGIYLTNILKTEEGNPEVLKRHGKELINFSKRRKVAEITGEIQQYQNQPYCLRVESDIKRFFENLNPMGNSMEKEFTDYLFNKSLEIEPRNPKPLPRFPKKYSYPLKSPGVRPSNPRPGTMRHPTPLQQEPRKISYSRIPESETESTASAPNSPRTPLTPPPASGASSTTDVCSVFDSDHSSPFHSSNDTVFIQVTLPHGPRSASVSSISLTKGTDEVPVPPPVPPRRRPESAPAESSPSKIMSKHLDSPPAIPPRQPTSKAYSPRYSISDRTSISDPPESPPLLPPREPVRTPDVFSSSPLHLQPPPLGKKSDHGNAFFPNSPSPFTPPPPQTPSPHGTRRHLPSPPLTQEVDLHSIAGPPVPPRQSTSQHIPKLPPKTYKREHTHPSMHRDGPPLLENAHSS

Tests used:
[1] = molecular target: KRAS-G12C/SOS1 (Homo sapiens (Human), UniProt Q07889); assay: Detection of inhibitory effects of compounds on KRAS-G12C/SOS1 (KRASG12C/SOS binding kit, HTRF); conditions: read-out: IC50, inhibitory activity on interaction of KRAS-G12C/SOS1, Em665/620
Source text: Experimental objective: The inhibitory effects of the tested compounds on KRAS-G12C/SOS1 were detected. IC50 was used to characterize the inhibitory ability of the compounds on the KRAS-G12C/SOS1. The lower IC50 value indicated the stronger inhibitory ability. BI-3406 was used as a positive control compound.
Experimental reagents: KRASG12C/SOS binding kit (Cisbio, cat. 63ADK000CB16PEG); DMSO (Sigma, cat. D8418-1L); and 384-well white plate (PerkinElmer, cat. 6007290)
• 1. Preparation of compounds: the test compounds were dissolved in 100% DMSO to obtain 10 mM stock solutions and the stock solutions were stored in a refrigerator in the dark. • 2. Kinase reaction process:
Preparation of compounds: the test compounds had the concentration of 5,000 nM and diluted in a 384-well plate into a 100% DMSO solution at the 200-fold final concentration, and the compounds were diluted 3-fold with 10 concentrations. 50 nL of the compounds at the 200-fold final concentration were transferred to the plate of interest, the 384-well plate, using a dispenser Echo 550. 50 nL of 100% DMSO was added to each negative control well and positive control well.
A Tag1-SOS1 solution at the 4-fold final concentration was prepared using a diluent buffer.
2.5 μL of the Tag1-SOS1 solution at the 4-fold final concentration was added to the 384-well plate.
A Tag2-KRAS-G12C solution at the 4-fold final concentration was prepared using the diluent buffer.
2.5 μL of the Tag2-KRAS-G12C solution at the 4-fold final concentration was respectively added into compound wells and the positive control wells; and 2.5 μL of the diluent buffer was added to the negative control wells.
The 384-well plate was centrifuged at 1,000 rpm for 30 seconds, shaken and mixed uniformly, and incubated at room temperature for 15 minutes.
An Anti-Tag1-TB3+ solution at the 1-fold final concentration and an Anti-Tag2-XL665 solution at the 1-fold final concentration were prepared using a detection buffer, the two solutions were mixed uniformly to obtain a Mix solution, and 5 μL of the Mix solution was added into each well.
The 384-well plate was centrifuged at 1,000 rpm for 30 seconds, shaken and mixed uniformly, and incubated at 4° C. for 120 minutes.
Em665/620 was read using an Envision microplate reader.
Inhibition %=(Max signal−Compound signal)/(Max signal−Min signal)×100 Calculation formula • wherein the Min signal was the mean value of the negative control wells, and the Max signal was the mean value of the positive control wells.
A dose-response curve was fitted using the log value of the concentration as an X axis and the percentage of the inhibitory rate as a Y axis by using the log(inhibitor) vs. response-variable slope of an analytical software GraphPadPrism5, thereby obtaining the IC50 value of each compound on an enzyme activity.

[2] = system: p-ERK of PC-9 cells; assay: p-ERK HTRF assay in PC-9 cells; conditions: read-out: IC50, inhibitory activity on p-ERK of PC-9 cells, PC-9 lung cancer cells, 1 hour treatment
Experimental: IC50 Values of Compounds Determined by p-ERK HTRF Assay in PC-9 Cells
Experimental objective: an inhibitory effect of the test compounds on the phosphorylation of PC-9ERK of lung cancer cells at a cellular level was evaluated by detecting the phosphorylation of ERK.
• PRMI 1640 medium (Invitrogen-11875093) • 0.25% pancreatin (Invitrogen-25200056) • Phosphoric acid buffer salt solution (PBS, pH 7.4) (Invitrogen-10010023) • Double-antibody (PS) (Invitrogen-15140122) • Fetal bovine serum (FBS) (Gibco-10091148) • Trypan blue (Gibco-15250061) • 10-cm culture dish (Corning-430167) • 10-mL pipette (Costar-4488) • Pipettor (Sartorius-17009031) • 15-mL centrifuge tube (Corning-430052) • 50-mL centrifuge tube (Corning-430829) • Cryotube (Thermo-377267) • 1.5-mL EP tube (Axygen-MCT-150-C-S) • Cell incubator (Thermo-371) • Microscope (Olympus-CKX41) • Centrifuge (Flying Pigeon-TDL-80-2B) • Cell counter (Countstar-IC-1000) • Envision (Perkin Elmer) • Spark 10M (TECAN) • Phospho-ERK1/2 (Thr202/Tyr204) Experimental kit (Cisbio, Cat. No. 64AERPEG) • PC-9 cells: RPMI1640+10% FBS+1% PS
• 1) PBS, 0.25% pancreatin, and a cell culture medium were placed in a water-bath kettle at 37° C. for preheating; • 2) cells were observed under a microscope, a fusion degree was evaluated, and no bacterial and fungi pollution was confirmed; • 3) a culture solution was removed, the cells were washed with 5 mL of PBS and digested with 2 mL of the 0.25% trypsin, the digestion was terminated with 10 mL of the fresh cell culture medium, a culture dish was rinsed, and the cells were transferred to a 15-mL centrifuge tube; • 4) the collected cells were centrifuged at 1,000 rpm for 5 minutes; • 5) after the centrifugation, the supernatant was discarded, the cells were resuspended in 5 mL of the cell culture medium, 20 μL of the resuspended cells were aspirated, and the number and viability of viable cells were recorded; • 6) the cell culture medium was used and the cell density was adjusted (PC-9:10,000 cells/well, and 45 μL per well); • 7) in a 384-well plate, 45 μL of a cell suspension per well was transferred according to an experimental design figure; and • 8) the cells were incubated overnight at 37° C. and 5% CO2.
• 1) The compounds were diluted from the stock concentration to 10 mM with 100% DMSO (Trametinib was diluted to 1 mM), then 3-fold diluted into 10 points (5 μL of the diluted compounds with the concentration of 10 mM were transferred to 10 μL of the DMSO in an LDV plate), and centrifuged at 1,000 rpm/min for 1 minute; • 2) 5 μL of the diluted compounds of step 1) were transferred to an inter plate 1 containing 45 μL of the cell culture medium (the compounds were diluted from 1,000× to 100×); • 3) 5 μL of the diluted compounds of step 2) were transferred to an inter plate 2 containing 45 μL of the cell culture medium (the compounds were diluted from 100× to 10×); • 4) 5 μL of the compounds were pipetted from the inter plate 2 into a cell culture plate (the compounds were diluted from 10 folds to 1 fold), the final concentrations of the test compounds were 10,000 nM, 3333.33 nM, 1111.11 nM, 370.37 nM, 123.46 nM, 41.15 nM, 13.72 nM, 4.57 nM, 1.52 nM, and […], the solution was centrifuged at 1,000 rpm/min for 1 minute, and the final content of the DMSO was 0.1%; and • 5) the cells were treated in an incubator at 37° C. for 1 hour. […]

| IC50 [1] | IC50 [2] | SMILES |
| --- | --- | --- |
| < 100 nM | 300 to 1000 nM | COC1CCC(OC)(c2cc3c(N[C@H](C)c4cccc(C(F)F)c4F)ccnc3cn2)CC1 (single isomer, unassigned) |
| – | 300 to 1000 nM | C[C@@H](Nc1ccnc2cnc(C3(O)CCC(CO)CC3)cc12)c1cccc(C(F)F)c1F (single isomer, unassigned) [B-102-P1] |
| < 100 nM | < 300 nM | CC(=O)NC1CCC(O)(c2cc3c(N[C@H](C)c4cccc(C(F)F)c4F)ccnc3cn2)CC1 (single isomer, unassigned) |
| < 100 nM | 300 to 1000 nM | COc1nc(C2(O)CCC(O)CC2)cc2c(N[C@H](C)c3cccc(C(F)F)c3F)cc(C)nc12 (single isomer, unassigned) |
| < 100 nM | < 300 nM | C[C@@H](Nc1ccnc2cnc(C3(O)CCC(O)CC3)cc12)c1cccc(C(F)F)c1F (single isomer, unassigned) [B-80-P1] |
| 100 to 500 nM | – | C[C@@H](Nc1ccnc2cnc(C3(O)CCC(C(C)(C)O)CC3)cc12)c1cccc(C(F)F)c1F (single isomer, unassigned) [B-101-P1] |
| – | < 300 nM | C[C@@H](Nc1ccnc2cnc(C3(O)CCC(C(C)(C)O)CC3)cc12)c1cccc(C(F)F)c1F (single isomer, unassigned) [B-101-P2] |
| < 100 nM | < 300 nM | C[C@@H](Nc1ccnc2cnc(C3(O)CCC(C)(O)CC3)cc12)c1cccc(C(F)F)c1F (single isomer, unassigned) |
| < 100 nM | – | COC1(c2cc3c(N[C@H](C)c4cccc(C(F)F)c4F)ccnc3cn2)CCC(N(C)C)CC1 (single isomer, unassigned) |
| – | < 300 nM | C[C@@H](Nc1ccnc2cnc(C3(O)CCC(CO)CC3)cc12)c1cccc(C(F)F)c1F (single isomer, unassigned) [B-102-P2] |
| – | < 300 nM | CNC(=O)C1CCC(O)(c2cc3c(N[C@H](C)c4cccc(C(F)F)c4F)ccnc3cn2)CC1 (single isomer, unassigned) |
| < 100 nM | < 300 nM | C[C@@H](Nc1ccnc2cnc(C3(O)CCN(C(=O)CO)CC3)cc12)c1cccc(C(C)(F)F)c1F |
| < 100 nM | 300 to 1000 nM | Cc1nc(N2CCS(=O)(=O)CC2)cc2c(N[C@H](C)c3cccc(C(F)F)c3F)ccnc12 |
| < 100 nM | 300 to 1000 nM | C[C@@H](Nc1ccnc2cnc(C3(O)CCC(O)CC3)cc12)c1cccc(C(F)F)c1F (single isomer, unassigned) [B-80-P2] |
| < 100 nM | < 300 nM | COC1CCC(O)(c2cc3c(N[C@H](C)c4cccc(C(F)F)c4F)ccnc3cn2)CC1 (single isomer, unassigned) |
